Results: patent US20140050779A1, “[…]-2 INHIBITORS AND USES THEREOF” (SINGAPORE HEALTH SERVICES PTE. LTD., priority 2011, published 2014)

Test system: cultured SF cells
Experiment: effect of TG-2 inhibitors on cultured scleral fibroblast growth (XCELLigence)
Format: cell-based
Conditions: treated SF cells
Protocol: To test the effect of TG-2 inhibitors on cultured scleral fibroblast growth, cultured SF cells at passage 4 were treated with TG-2 inhibitors at baseline, 0.1, 1, 10 and 100 μM for 5 days. The SF cell growth was monitored by XCELLigence cell impedance.

TAMRA-DON [R002]
cell morphology: No change
